Experiment [1] deals with T1, Carnitine O-palmitoyltransferase 2, mitochondrial (Homo sapiens, UniProt P23786).
T1 sequence (P23786 whole entry): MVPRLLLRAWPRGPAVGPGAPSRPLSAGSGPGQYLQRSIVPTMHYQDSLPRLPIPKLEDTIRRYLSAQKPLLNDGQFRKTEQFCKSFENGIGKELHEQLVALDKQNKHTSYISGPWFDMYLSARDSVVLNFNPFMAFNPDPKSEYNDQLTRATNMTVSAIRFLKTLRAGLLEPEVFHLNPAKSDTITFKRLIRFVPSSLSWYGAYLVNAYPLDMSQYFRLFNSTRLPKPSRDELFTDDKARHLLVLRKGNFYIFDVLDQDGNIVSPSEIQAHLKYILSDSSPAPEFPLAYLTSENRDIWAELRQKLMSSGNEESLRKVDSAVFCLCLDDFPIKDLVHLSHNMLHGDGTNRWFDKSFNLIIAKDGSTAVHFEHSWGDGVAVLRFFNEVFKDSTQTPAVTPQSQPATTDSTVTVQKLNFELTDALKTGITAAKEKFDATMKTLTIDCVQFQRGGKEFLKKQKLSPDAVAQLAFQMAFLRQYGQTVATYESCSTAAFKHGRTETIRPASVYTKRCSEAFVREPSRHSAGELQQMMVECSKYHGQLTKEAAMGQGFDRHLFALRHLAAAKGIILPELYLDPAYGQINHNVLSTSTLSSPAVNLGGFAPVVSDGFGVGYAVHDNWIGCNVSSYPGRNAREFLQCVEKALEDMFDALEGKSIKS
Briefly: Inhibition of human CPT2.

In experiment [2] the target is T2, Carnitine O-palmitoyltransferase 1, liver isoform (Homo sapiens, UniProt P50416).
T2 sequence (P50416 whole entry): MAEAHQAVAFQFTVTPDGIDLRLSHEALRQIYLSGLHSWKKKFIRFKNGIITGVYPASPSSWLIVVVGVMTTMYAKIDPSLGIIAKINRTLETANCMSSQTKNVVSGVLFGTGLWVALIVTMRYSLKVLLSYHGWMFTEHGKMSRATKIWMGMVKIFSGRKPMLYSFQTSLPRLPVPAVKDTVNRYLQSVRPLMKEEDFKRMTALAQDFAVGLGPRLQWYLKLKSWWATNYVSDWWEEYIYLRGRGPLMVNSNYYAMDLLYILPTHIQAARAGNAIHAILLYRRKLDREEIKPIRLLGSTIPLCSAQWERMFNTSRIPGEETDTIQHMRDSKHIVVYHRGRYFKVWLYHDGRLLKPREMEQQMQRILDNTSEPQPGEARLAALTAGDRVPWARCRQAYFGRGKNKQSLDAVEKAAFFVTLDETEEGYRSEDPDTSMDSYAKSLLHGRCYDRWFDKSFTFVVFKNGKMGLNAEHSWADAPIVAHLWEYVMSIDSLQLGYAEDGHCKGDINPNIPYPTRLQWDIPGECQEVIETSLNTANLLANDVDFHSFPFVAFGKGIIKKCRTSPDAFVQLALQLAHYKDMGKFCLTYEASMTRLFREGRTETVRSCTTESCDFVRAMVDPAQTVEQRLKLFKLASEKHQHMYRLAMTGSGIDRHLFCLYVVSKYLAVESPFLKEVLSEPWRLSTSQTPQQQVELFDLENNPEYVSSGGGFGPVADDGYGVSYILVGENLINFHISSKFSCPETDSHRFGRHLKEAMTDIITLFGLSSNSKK
Description: Inhibition of human CPT1A.

This note sets out measurements from ChEMBL document CHEMBL2216752, “Carnitine palmitoyltransferase (CPT) modulators: a medicinal chemistry perspective on 35 years of research” (J Med Chem, 2011).

In the case of `CCCCc1oc2ccccc2c1C(=O)c1cc(I)c(OCCN(CC)CC)c(I)c1` [AMIODARONE], the results for the half-inhibitory concentration (IC50) in experiment [1] and in experiment [2] were above 100 µM and 140 µM, respectively.
